ALR H2O2 inh = inhibitors of human ALR sulfhydryl oxidase, primary screen, biochemical, H2O2 detection, HRP-luminol luminescence, single point; FAD-linked sulfhydryl oxidase ALR (Homo sapiens), P55789; purified ALR, DTT oxidation; inhibition, % (test concentration not listed); 290,000 tested, 3.8% active; AID 485317, 2010;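 active = mean and each replicate at 75% or more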;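 note: stock transfer was 7.5 nL into about 7.5 µL; 0% = neutral wells and 100% = wells with inactivated enzyme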
Yeast UUG start-1 = modulators of start codon recognition fidelity in yeast; AID 602363; activity score, % at 18.7 µM; S. cerevisiae UUG-firefly luciferase reporter, luminescence/redox ratio; 0.13% of 350,000 active;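 active = replicate mean at a twofold rise or more, about +100% in these data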;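 note: firefly luciferase made from a UUG start codon reports start codon fidelity; reporter light over untreated wells divided by growth signal over untreated wells; some hits fall short of that in this replicate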
MC4R antagonist = MC4R antagonists of cAMP signaling, primary screen, cell-based, TR-FRET, antagonist arm of biased-ligand search. inhibition, % at 6.5 µM. MC4R-expressing cells, MTII-stimulated cAMP, LANCE TR-FRET. 360,000 tested, 0.48% active;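 active = inhibition above its plate's cutoff, the mean of tested wells on that plate plus 3 SD, cut at about 29% in these data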;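 note: 0% = Melanotan II alone and 100% = Melanotan II plus saturating MCL0020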
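Material – human MC4R-expressing U2OS cells · Repeats – no replicates · Detection – TR-FRET with Eu-cAMP and labeled anti-cAMP, 671 nm · Times – compound 30 min, challenge 1 h, detection 1 h · Compound – single nominal compound dose of 6.5 µM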
HDAC3 inh = HDAC3 deacetylase inhibitors, primary screen, biochemical, fluorescence, cell-free homogeneous. 320,000 tested, 0.15% active. Histone deacetylase 3 (Homo sapiens), O15379. recombinant HDAC3, fluorogenic peptide/trypsin coupled. inhibition, % at 8.3 µM. AID 2718, 2010; in the data active = inhibition above about 26%, passing the limit was not always enough; inconclusive = no clear call, values can overlap the other calls
MC4R ag barr = MC4R agonists recruiting beta-arrestin, primary screen, cell-based, luminescence, agonist arm of biased-ligand search; Melanocortin receptor 4 (Homo sapiens), P32245; U2OS MC4R beta-arrestin complementation; percent of melanotan II response, DMSO zero; activation, % at 8.9 µM; 360,000 tested, 0.98% active;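 active = activation above a per-plate cutoff, the mean activation of sample wells on that plate plus 3 SD, cut at about 8% in these data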
NALP1 inh = NALP1 inflammasome inhibitors in reconstituted yeast, colorimetric, S. cerevisiae, triplicate retest; 280,000 tested, 0.61% active; inhibition, % at 10 µM; AID 2071, 2009; S. cerevisiae NALP1/ASC/caspase-1 growth, X-gal OD620, 72 h; in the data active = inhibition mostly above about 24%, no sharp cut-off; inactive = mostly below about 32%
U2OS cAMP counter = nonselective cAMP signaling inhibitors, parental cells, counter-screen for MC4R biased antagonist project, cell-based, TR-FRET, U2OS, forskolin, triplicate | shares compounds with MC4R antagonist | LANCE TR-FRET | inhibition, % at 6.5 µM | 1,600 tested, 26% active | AID 602193, 2012;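 active = mean inhibition over triplicates above the low-control well mean plus 3 SD, set per campaign, cut at about 13% in these data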;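 note: signal is single emission at 671 nm which falls as cellular cAMP rises; 0% = forskolin-stimulated wells and 100% = buffer without forskolin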
MC4R cAMP antag = MC4R cAMP antagonists, retest, confirmation, cell-based, TR-FRET; shares compounds with MC4R antagonist; MC4R-expressing cells, MTII-stimulated cAMP; inhibition, % at 6.5 µM; 1,600 tested, 27% active; AID 602195, 2012; in the data active = inhibition above about 29%;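 note: 0% = agonist stimulated wells alone and 100% = agonist stimulated wells plus saturating reference antagonist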
MC4R barr conf = MC4R beta-arrestin agonists, retest, confirmation, cell-based, luminescence, U2OS; shares compounds with MC4R ag barr; U2OS MC4R beta-arrestin recruitment; scaled DMSO 0%, Melanotan II 100%; activation, % at 8.9 µM; 2,400 tested, 31% active;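 active = mean activation across replicates above the hit cutoff set in the earlier primary screen, cut at about 8% in these data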
MOR-DOR barr ag = agonists of MOR-DOR heterodimerization, counter-screen for MC4R biased agonist project, cell-based, luminescence | shares compounds with MC4R ag barr | U2OS PathHunter beta-arrestin, beta-gal luminescence; percent of deltorphin B response, DMSO zero | 2,400 tested, 5.8% active | activation, % at 9.2 µM | AID 602194, 2012;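 active = mean activation across replicates exceeds the hit threshold derived in the earlier primary screen, cut at about 18% in these data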;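 note: 100% = deltorphin B at 0.9 µM final and 0% = DMSO alone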
Yeast UUG start-2 = enhancers of UUG start codon usage in yeast, dose response, S. cerevisiae, UUG firefly luciferase, cherry-pick, set 2; luminescence, 4 h; 100% means double the DMSO signal; shares compounds with Yeast UUG start-1; activation, % at 38 µM; 540 tested, under 10 active;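 active = signal increase whose fitted curve reaches an absolute level of 40 at a concentration under 10 µM; inactive = activity opposite to the expected increase, or the rest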
Active calls of the source: *; ? = inconclusive; · = not tested or not shown. Most compounds without a hit are left out; they make up all but 4.2% or so of the library.

Sequences of proteins named here, by UniProt entry; tags and fusion partners are left off.
Melanocortin receptor 4 (Homo sapiens), P32245, UniProt P32245, whole entry, looked up: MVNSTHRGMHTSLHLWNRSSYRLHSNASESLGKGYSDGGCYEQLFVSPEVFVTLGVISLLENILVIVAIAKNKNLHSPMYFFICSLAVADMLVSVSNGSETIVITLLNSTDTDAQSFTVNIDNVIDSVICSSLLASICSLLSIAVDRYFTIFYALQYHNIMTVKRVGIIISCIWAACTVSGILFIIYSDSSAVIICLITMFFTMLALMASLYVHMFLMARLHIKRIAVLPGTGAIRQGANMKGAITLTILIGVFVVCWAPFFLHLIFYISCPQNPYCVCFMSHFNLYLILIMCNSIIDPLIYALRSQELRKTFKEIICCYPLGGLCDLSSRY

The opening 4 entries (preview)
SMILES	ALR H2O2 inh	Yeast UUG start-1	MC4R antagonist	HDAC3 inh	MC4R ag barr	NALP1 inh	U2OS cAMP counter	MC4R cAMP antag	MC4R barr conf	MOR-DOR barr ag	others
COc1ccc(-n2c(-c3cccc(OC)c3)nc(=S)c3c2CCCC3)cc1	-1.2	-17.0	30.9*	15.0	-0.9	-6.0	16.8*	32.5*	·	·
CC1(C)OC(=O)C(=Cc2ccc(-c3ccc(S(N)(=O)=O)cc3)o2)C(=O)O1	?	-11.1	38.8*	4.2	-1.0	11.0	11.5	19.2	·	·
NS(=O)(=O)c1ccc(-c2ccc(/C=C3\C(=O)Nc4ccccc43)o2)cc1	5.7	·	·	-2.5	·	-0.2	·	·	·	·
C[C@H](O)C#Cc1ccc2c(c1)O[C@@H](CN(C)CC1CC1)[C@H](C)CN([C@@H](C)CO)S2(=O)=O	·	-6.0	·	·	·	·	·	·	·	·

The whole of this part (from the top)
SMILES	ALR H2O2 inh	Yeast UUG start-1	MC4R antagonist	HDAC3 inh	MC4R ag barr	NALP1 inh	U2OS cAMP counter	MC4R cAMP antag	MC4R barr conf	MOR-DOR barr ag	others
COc1ccc(-n2c(-c3cccc(OC)c3)nc(=S)c3c2CCCC3)cc1	-1.2	-17.0	30.9*	15.0	-0.9	-6.0	16.8*	32.5*	·	·
CC1(C)OC(=O)C(=Cc2ccc(-c3ccc(S(N)(=O)=O)cc3)o2)C(=O)O1	?	-11.1	38.8*	4.2	-1.0	11.0	11.5	19.2	·	·
NS(=O)(=O)c1ccc(-c2ccc(/C=C3\C(=O)Nc4ccccc43)o2)cc1	5.7	·	·	-2.5	·	-0.2	·	·	·	·
C[C@H](O)C#Cc1ccc2c(c1)O[C@@H](CN(C)CC1CC1)[C@H](C)CN([C@@H](C)CO)S2(=O)=O	·	-6.0	·	·	·	·	·	·	·	·
O=C(C[C@H]1C=C[C@H](NS(=O)(=O)c2cccc(F)c2)[C@H](CO)O1)NCc1ccc2c(c1)OCO2	·	-8.3	·	·	·	·	·	·	·	·
CC1CN(S(=O)(=O)c2ccc(C(=O)N3c4ccccc4CC3C)cc2)CC(C)O1 (stereo not drawn)	7.9	-12.0	28.6*	-1.7	-0.6	·	-1.5	-18.1	·	·
Cc1cc(O)c(C(C)C)cc1C1(c2cc(C(C)C)c(O)cc2C)OC(=O)c2ccccc21	3.0	-3.0	30.8*	1.3	18.9*	-2.6	6.0	28.8*	8.6*	9.1
COc1cccc(C(=O)C(CCC#N)c2ccccc2)c1 (stereo not drawn)	·	7.9	0.1	·	-0.4	·	·	·	·	·
COc1cccc(C(=O)C(C#N)=C(SC)SC)c1	·	0.9	42.2*	4.8	24.1*	22.9	10.2	23.2	13.6*	19.4*
CN1C(=O)c2cc(NS(=O)(=O)c3ccc(Cl)cc3)ccc2OC[C@H]2O[C@H](CC(=O)O)CC[C@H]21	·	16.5	·	·	·	·	·	·	·	·
O=C1c2cc([N+](=O)[O-])ccc2-c2cc(Br)c(N=C(NO)C(F)(F)F)cc21	·	·	34.7*	·	13.6*	·	-3.1	-4.2	13.1*	5.8
Cc1ccc(OCC(=O)NC(=S)Nc2ccc3c4c(cccc24)CC3)cc1	-0.7	·	38.7*	9.3	13.3*	0.2	6.5	13.7	12.4*	2.8
C[C@@H]1CN([C@@H](C)CO)C(=O)Cc2cc(N(C)C)ccc2O[C@H]1CN(C)S(=O)(=O)c1ccc(Cl)cc1	·	16.9	·	·	·	·	·	·	·	·
COc1ccc(NC(=O)N(C)C[C@@H]2Oc3ccc(NC(=O)Nc4c(C)noc4C)cc3CC(=O)N([C@@H](C)CO)C[C@@H]2C)cc1	·	-3.3	·	·	·	·	·	·	·	·
CCCCNc1c(-c2cccc(-c3cc(C(C)=O)cs3)c2)nc2ccc(C)cn12	·	-18.9	50.2*	15.1	19.1*	·	9.3	19.1	23.8*	7.4
Cc1ccc2oc(-c3ccc(NC(=O)c4ccc5c(c4)OCO5)cc3)nc2c1	-4.0	-16.4	6.4	0.7	0.0	2.9	·	·	·	·
O=C(Nc1ccc(-c2nc3ccccc3o2)cc1)c1ccc2c(c1)OCO2	-0.2	-21.1	29.6*	-0.7	20.0*	·	0.8	-7.8	11.9*	7.4
O=Nc1c(-c2c(O)[nH]c3cc(Br)ccc23)[nH]c2ccccc12	3.0	-6.3	61.9*	-7.0	14.1*	18.2	5.0	55.9*	0.5	3.1
O=C(CSCc1cccc(Br)c1)N=Nc1c(O)[nH]c2ccccc12	·	·	-2.6	2.2	-0.2	12.8	·	·	·	·
C[C@@H]1CN([C@H](C)CO)C(=O)c2cccc(NC(=O)C3CCOCC3)c2O[C@@H]1CN(C)CC1CCCCC1	·	-4.5	·	·	·	·	·	·	·	·
O=C(Nc1nc2ccc(SC(F)F)cc2s1)c1ccc(NS(=O)(=O)c2ccc(F)c(F)c2)cc1	98.6*	-19.2	37.5*	-3.6	35.0*	33.5	2.1	-2.7	33.8*	3.2
CS(=O)(=O)c1ccc2nc(NC(=O)c3ccc(NS(=O)(=O)c4ccc(F)c(F)c4)cc3)sc2c1	3.8	-15.9	9.6	-32.0	-0.3	·	·	·	·	·
CC1CCCCC1NC(=O)/C(C#N)=C/c1ccccc1F (stereo not drawn)	25.7	221.7*	35.4*	4.1	-1.6	62.0	5.4	14.2	·	·	Yeast UUG start-2=-14.0
Cc1noc(C)c1NC(=O)N(C)C[C@@H]1Oc2ccc(NC(=O)Nc3ccc(F)cc3)cc2CC(=O)N([C@@H](C)CO)C[C@H]1C	·	8.1	·	·	·	·	·	·	·	·
Cc1nnc(N2CCCC(C(=O)NCc3cccc(F)c3)C2)c2nn(-c3ccccc3)c(C)c12 (stereo not drawn)	2.4	-6.4	7.0	-10.4	-0.5	19.9	·	·	·	·
CCc1ccc(CNC(=O)C2CCCN(c3nnc(C)c4c(C)n(-c5ccccc5)nc34)C2)cc1 (stereo not drawn)	-0.8	7.6	13.3	-11.4	19.4*	11.5	·	·	2.1	2.8
COc1ccccc1CCNC(=O)C1CCN(c2nnc(C)c3c(C)n(-c4ccc(C)cc4)nc23)CC1	·	-3.7	12.7	-3.0	10.3*	-11.7	·	·	3.0	2.6
CCOc1ccccc1CNC(=O)C1CCN(c2nnc(C)c3c(C)n(-c4ccc(C)cc4)nc23)CC1	-1.3	-14.2	2.8	1.4	10.0*	17.3	·	·	3.9	9.2
CC(C)CC#Cc1cnc2c(c1)C(=O)N([C@H](C)CO)C[C@@H](C)[C@@H](CN(C)Cc1ccccn1)O2	·	-16.5	·	·	·	·	·	·	·	·

Screening data from PubChem.
